The source of these data is patent US11179474B1, “Nanoparticle-based liver-targeting therapy and imaging” (priority 2015, dated 2021).

The data set can be described thus: Solubility in aqueous systems. The format is physicochemical. An excerpt:
For the functionalisation of the liver targeting nanoparticles two antineoplastic agents were chosen as chemotherapeutics: platinum-(IV)-succinate (Pt(IV)-suc) and doxorubicin. Both chemotherapeutics were coupled to the attachment linker via EDC*HCl/NHS promoted amide bound formation. […] Therefore, the nanoparticle solution was exchanged to DMSO either via lyophilisation or centrifuge concentration and subsequent dilution. Then, the EDC*HCl/NHS pre-activated succinate was reacted with the nanoparticles overnight. Final washings to remove remaining reagents provided an aqueous solution of liver targeting gold nanoparticles with platinum based chemotherapeutic pay-load (FIG. 3B). The Pt/Au ratio was determined by MPAES to 1/15. The covalent attachment of the drug to the nanoparticle was shown by ^1H NMR of the final construct after etching (FIG. 4B). The original signal of the amino methylene group with a chemical shift of 2.81 ppm virtually disappears, while a new multiplet of the succinic ethylene group at 2.47 ppm can observed in the spectrum. The integrals of the reporter signals were not changed indicating corona stability during on nanoparticle manipulations.

For the substance platinum-(IV)-succinate, the “solubility in aqueous systems” value is on record as “not soluble in aqueous systems”.
